Kd data for one substance are collected here from patent publication US20040138119A1.

The assay concerns the target purified recombinant Survivin (untagged) (human) (UniProt O15392). The assay can be described thus: Scatchard analysis of His6-HBXIP binding to purified untagged Survivin.

A word on the Kd: it is the equilibrium constant for the complex coming apart. For “His6-HBXIP (from UniProt O43504 1-91) (other; other documents disagree on this pair)”, the Kd came to 0.46 µM.
